## scFv variants of Ab-91 (heavy chain) against a SARS-CoV-2 spike peptide

Target: peptide PDVDLGDISGINAS, taken from heptad repeat 2 (HR2) of SARS-CoV-2 spike.

Each scFv is VL, three GGGGS repeats, VH, as in the parent Ab-91, and differs from it in the CDRs of the heavy chain only.
VL: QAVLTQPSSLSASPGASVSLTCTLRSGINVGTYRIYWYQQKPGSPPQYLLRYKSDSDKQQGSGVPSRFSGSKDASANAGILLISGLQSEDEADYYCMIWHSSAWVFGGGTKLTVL
VH: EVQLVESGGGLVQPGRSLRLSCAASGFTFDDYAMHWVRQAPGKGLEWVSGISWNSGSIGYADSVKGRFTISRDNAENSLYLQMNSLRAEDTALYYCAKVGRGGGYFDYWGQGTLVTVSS

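The parent was found by panning a naive human phage display library on the peptide. In library AAYL51, one, two or three CDR residues were substituted; doubles and triples were drawn at random. The assay is AlphaSeq: two haploid yeast populations carry antibody and antigen on their surface. Mating (16 h, 30 °C) was followed by selection of diploids and sequencing of their barcodes. Each replicate has its own calibration line, from reference interactions of the BCL2 family. Each pool was mated in three replicate cultures.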

Each variant is given by its three heavy chain CDRs, as the data file delimits them; those of the parent are GFTFDDYAMH, GISWNSGSIGYADSVK, VGRGGGYFDY.
Every variant below is changed at D31 of the VH (sequential numbering).
The read-out is the apparent dissociation constant on a log10 scale (nM): the lower, the stronger.
Replicates are averaged; those with no signal do not enter the mean.
A pair that was not seen in any replicate is written "nd"; this usually means weak binding, but a binder can also be missed.
Order: sorted from the lowest average up, undetected variants last.
In this assay the parent's reference entry averaged 1.86; its copy inside this library read 0.88.

The variant GFTFDSYAMH / GISGNSGSIGYADSVK / VGRGGVYFDY gave 0.54 (3 of 3 replicates). The variant GFTFDWYAMH / GISWNSGSIGYADSVK / VGRGGGYFDY showed 0.77 (3 of 3 replicates). The variant GFTFDNYAMH / GISWNSHSIGYADSVK / VGRGGGYFDC gave 0.82 (3 of 3 replicates). With GFTFDEYAMH / GISWNSGSIGYADIVK / VGRGGGYFDY the result was 0.89 (3 of 3 replicates). For GFTFDYYAMH / GINWNSGSIGYADSVK / VGRGGQYFDY, the assay gave 1.14 (3 of 3 replicates). With GVTFDVYAMH / GISWNSGSIGYADKVK / VGRGGGYFDY the result was 1.41 (3 of 3 replicates).

The variant GFTFDYYAMH / GISWNSGSIYYHDSVK / VGRGGGYFDY showed 1.51 (1 of 3 replicates). For GFTFDQYAMH / GISWASGSIGYADSVK / VGRGGGYFDA, the assay gave 1.58 (3 of 3 replicates). The variant GFTFDIYAMH / GISWNSGSIGYAENVK / VGRGGGYFDY gave 1.93 (3 of 3 replicates). The variant GFTFDWYAMH / GISWNSGSIGYADSLK / VGRGGGYFDY gave 1.94 (3 of 3 replicates). The variant GFTFDTYAMH / GISWNSGSIGYADSVK / VGRGGGYFDY gave 2.18 (3 of 3 replicates). With GFTTDFYAMH / GISWNSGSIGYADSVK / VGRGGGYFAY the result was 4.04 (2 of 3 replicates).

The variant GFTFDMYAMH / GISWNCGSIGYADSVG / VGRGGGYFDY showed 4.16 (3 of 3 replicates). The variant GFTFDGYAMH / GISWNSGSIWYADSVK / VGRGGGAFDY gave 4.25 (3 of 3 replicates). The variant GFTFDTYAMH / GISWNSGSIGGADSVK / VGRVGGYFDY showed 4.67 (1 of 3 replicates). The variant GQTFDAYAMH / GISWNSGSIGYADSVK / VGRGGSYFDY showed 4.98 (3 of 3 replicates). The variant RFTFDPYAMH / GIMWNSGSIGYADSVK / VGRGGGYFDY gave 5.99 (1 of 3 replicates). For HFTFDCYAMH / GISWNSGSIGYADGVK / VGRGGGYFDY, the assay gave nd (0 of 3 replicates).

With GFTFDSYIMH / GISWNSGSIGYADSVK / VGRGGGSFDY the result was nd (0 of 3 replicates). The variant GPTFDIYAMH / SISWNSGSIGYADSVK / VGRGGGYFDY gave nd (0 of 3 replicates). With GFTFDNYAMH / GISWNSGSIGKADSVV / VGRGGGYFDY the result was nd (0 of 3 replicates). With GFTFDKYAMH / GISWNSGSIGYADIVK / VGRGGYYFDY the result was nd (0 of 3 replicates). With GFTFDRYAMR / GISWNSGSIGYADSVK / VGRGGGTFDY the result was nd (0 of 3 replicates). With GFTFDNYAMH / GISWNSGSIGYADSVK / VGRGKGYFDP the result was nd (0 of 3 replicates).

With GFTFDMYAEH / GISWNSGSIGYADSVK / VGRGGGRFDY the result was nd (0 of 3 replicates). The variant MFTFDIYAMH / GISWNSGSIGYADSVK / VGYGGGYFDY showed nd (0 of 3 replicates). With GFTFDMQAHH / GISWNSGSIGYADSVK / VGRGGGYFDY the result was nd (0 of 3 replicates). The variant GFTFDFYAMH / GISWNSGSIKYADSVK / VGCGGGYFDY showed nd (0 of 3 replicates). With GFTFDFYAMH / GISWTSGSIGYADSVM / VGRGGGYFDY the result was nd (0 of 3 replicates). For GFTFDVYAMH / GISWNSGSIGYADSVK / VGREGGYFDY, the assay gave nd (0 of 3 replicates).

The variant GFTFDMYAMH / GISWNSGSIGDADSVK / VGRGLGYFDY showed nd (0 of 3 replicates).

The opening 2 entries, copied out:

| CDR-H1 | CDR-H2 | CDR-H3 | log10 Kd (nM), mean | seen in |
|---|---|---|---|---|
| GFTFDSYAMH | GISGNSGSIGYADSVK | VGRGGVYFDY | 0.54 | 3 of 3 |
| GFTFDWYAMH | GISWNSGSIGYADSVK | VGRGGGYFDY | 0.77 | 3 of 3 |

Background: pairings of library AAYL51 with three empty control strains gave a value in 21% of cases (median 4.54, 5th percentile 3.26). Values in that range, when seen in few replicates, are hard to tell from nonspecific mating.

Data: MIT Lincoln Laboratory AlphaSeq set, Engelhart et al. 2022, doi:10.1038/s41597-022-01779-4, as distributed in FLAb.